Laboratory results reported in US6841359 (GENERAL HOSPITAL, dated 2005).

Amino acid sequences for entries named in this document (tags omitted). Residues count along the entry.
UniProt P22629, 37-163 limits assumed: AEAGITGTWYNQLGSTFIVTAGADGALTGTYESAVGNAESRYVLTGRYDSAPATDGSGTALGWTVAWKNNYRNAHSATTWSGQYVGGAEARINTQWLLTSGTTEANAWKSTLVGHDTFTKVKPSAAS

What was measured:
[1] = molecular target: T1, streptavidin (UniProt P22629 37-163, limits assumed); assay: streptavidin column-binding assay, 35S DNA-tagged peptide on immobilized streptavidin, biotin elution
T1 construct: The same protein was used free (EMSA, Biacore, SBIA) and immobilized on a matrix or plate; also called immobilized streptavidin; Ultralink immobilized streptavidin plus
Experimental: The resulting purified DNA-tagged peptides (DTP) were analyzed in a streptavidin column-binding assay, in which ~500 pM ^35S-labeled DTP were mixed with 50 µL of the streptavidin matrix in streptavidin-binding buffer, in a total volume of 300 µL, and incubated for 10 minutes at room temperature with agitation. Then, the contents were loaded onto a chromatography column. The column was drained and washed with 80 column volumes of streptavidin-binding buffer, and then eluted with three consecutive aliquots (3 column volumes each) of streptavidin-binding buffer plus 2 mM biotin over a 15 minute period. All fractions (flow-through, washes, elutions, and irreversibly bound counts) were analyzed by scintillation counting to determine the fraction of DTP that bound streptavidin and eluted with biotin (Table 1).

[2] = molecular target: T1, streptavidin; assay: EMSA, DNA-tagged peptide with free streptavidin; SD 16, n=4
Experimental: (§1) The dissociation constants of the selected peptides for streptavidin were measuring using an electrophoretic mobility shift assay (EMSA). In this assay, DTP's were incubated with varying amounts of pure streptavidin (Pierce Immunopure Streptavidin, Rockford, Ill.) in streptavidin-binding buffer plus 5% glycerol to increase the density of the solution so that it could collect at the bottom of the gel well. After incubating at room temperature for 20 minutes, the reactions mixtures were moved into the cold room, where they remained for 10 minutes before being carefully loaded onto a 10% polyacrylamide:bisacrylamide (37.5:1, National Diagnostics, Atlanta, Ga.) gel (thickness 0.7 mm, height 16 cm, width 18 cm) containing 2×TBE, 0.1% Triton X-100 and 5% glycerol. The gel, which had been pre-run for 30 minutes at 13 watts, and the running buffer were pre-cooled to 4° C. Then, the gel was run in the cold room at 13 watts, which increased the temperature of the gel to about 20° C. The gel was run for 45 to 120 minutes, depending on the mobility of the particular DTP. Then, the gel was fixed in 10% acetic acid and 10% methanol for 15 minutes, transferred to electrophoresis paper (Ahlstrom, Mt. Holly Springs, Pa.), dried, and analyzed using a PhosphorImager (Molecular Dynamics, Sunnyvale, Calif.).

[3] = molecular target: T1, streptavidin; assay: EMSA, DNA-tagged peptide with free streptavidin; SD 1.8, n=10
Experimental: as §1

Binder | % binding and eluting [1] [%] | Kd [2] [nM] | Kd [3] [nM]
SB10 (C-terminus joined through puromycin to a short DNA oligonucleotide (DNA-tagged peptide); 35S-methionine label, also called peptide SB10) peptide: MDEKTHWHERAQELVGGLLLHDHPQRLLLEPRGPRPLRGLVHERGHQPQPLAGRVEEADGGLLRDGGGELEPLVREGEDHLEPLDDELDAGPRGLVWRLPHHH | 15 |  | 
SB20 (C-terminus joined through puromycin to a short DNA oligonucleotide (DNA-tagged peptide); 35S-methionine label, also called peptide SB20) peptide: MNEKTHCKLNFKVNIADWLAEFHGGGQGLLGRRDGVVQRLVDGVQERVERLDRDPGLGDLRLELHHRDHRLRLGGEHLLRDHPLEPDDHLVVGGLVWRLPPS | 34 |  | 
SB13 (C-terminus joined through puromycin to a short DNA oligonucleotide (DNA-tagged peptide); 35S-methionine label, also called peptide SB13) peptide: MEREDPLDEQLRELREALVDHPQGGAQALHRHDGGEHVPLRRVQHRLQPGLQHHLEPQPLGLLGELQARLQPLAGEHEGDGAGLQRVPGHQGRRLVWRLPPS | 64 |  | 
SB11 (C-terminus joined through puromycin to a short DNA oligonucleotide (DNA-tagged peptide); 35S-methionine label, also called peptide SB11) peptide: MDEKTHWHERVHHLADGLEQHPQGQRRPLVERHRQVPRGLVRELQHEGLPLEHPAGVHVIRLHQGDDRDVDGLVDGHGRDVRGLEREVGDGPHRLVWRLPPS | 68 |  | 
SB15 (C-terminus joined through puromycin to a short DNA oligonucleotide (DNA-tagged peptide); 35S-methionine label, also called peptide SB15) peptide: MDEKTHWLEDLKGVLKDCLKDLMDFTKDCRSPRVQPQPLLHHDRGEPVPLLREAGRDLGGLGPRAPRQARPLHHGRHDLHEPLVLQDHPQGGPLVCGCHHH | 44 | 92 | 
SB19 (C-terminus joined through puromycin to a short DNA oligonucleotide (DNA-tagged peptide); 35S-methionine label, also called peptide SB19; clone SB19) peptide: MDEKTTGWRGGHVVEGLAGELEQLRARLEHHPQGQREPLVQEVEDVDEGLVQDLHGVVAGLLDPVEKLLTDWFKKFKNVSKDCKMTFYLEMYDWSGGCKLG | 85 |  | 10
SB14 (C-terminus joined through puromycin to a short DNA oligonucleotide (DNA-tagged peptide); 35S-methionine label, also called peptide SB14) peptide: MDEKTHRTLSVSLSFNDWLGQTKACWRLVEGLHGHPQGLVREHEVDVLPLAEEVQQVVGGLADGVEQPGGGLLHRAQRVDHPLPDHAGQVLGRLVWRLPPS | 11 |  | 
SB17 (C-terminus joined through puromycin to a short DNA oligonucleotide (DNA-tagged peptide); 35S-methionine label, also called peptide SB17) peptide: MDEKTHWVGDLQEPLGPLHGGVGEVPGGLVLRHHPQRDRLVDGVGPHGRALARRPHRVVEGLHHLLQRGGERLPPDGPRQLGLLGGELDRADPALVWRLPPS | 8.3 |  | 
SB16 (C-terminus joined through puromycin to a short DNA oligonucleotide (DNA-tagged peptide); 35S-methionine label, also called peptide SB16) peptide: MDEKTHWVLQLHPQGDRLGPRHGGDDVRLVGQGEGVLEGLDGRPRRRRHRLPREDEHRVRALVDQVRDLAERLVEEVDGGVEALRHLGLPQDEPRSGGCHHH | 50 |  | 
SB12 (C-terminus joined through puromycin to a short DNA oligonucleotide (DNA-tagged peptide); 35S-methionine label, also called peptide SB12) peptide: MDKDPLLEELEELRERLVHHPQGGLLPLRGQVGHDAERLGAEVDDLRGGLLDEPQRAVAGLHHVPHRVGQRLVHEVRELDEGLLDQRDDLRQRLVWRLPPS | 73 |  | 
SB18 (C-terminus joined through puromycin to a short DNA oligonucleotide (DNA-tagged peptide); 35S-methionine label, also called peptide SB18) peptide: MDEKTHCAVNVNVGLTHWCHRVAHLQPLDPHPQGDHLRLEPLGHALVDPLVQGVEEVVRPLQLDVGVQRVALVEQVAEVGEGLDHEAGQAHGALVWRLPPS | 58 |  | 
